Earlier results as cited in US20060014698A1, “Nebulized pharmaceutical compositions for the treatment of bronchial disorders” (priority 2004, published 2006).

Molecular target: thrombin (Homo sapiens, UniProt P00734)
Conditions: direct thrombin inhibitor; stated as a known property, no method given; read-out: inhibitory constant (Ki)

Ki: ~40 nM
SMILES: CC1CNc2c(cccc2S(=O)(=O)N[C@@H](CCCNC(=N)N)C(=O)N2CC[C@@H](C)C[C@@H]2C(=O)O)C1 (stereo partly shown) [Argartroban, 1-[5-[(aminoiminomethyl)amino]-1-oxo-2-[[(1,2,3,4-tetrahydro-3-methyl-8-quinolinyl)sulfoyl]amino]pentyl]-4-methyl-2-piperidinecarboxylic acid monohydrate]
